# From PubChem BioAssay AID504558 (Broad Institute, 2011)
# Only a part is listed here, and it is no random draw. Active and inactive are the calls of the source. Rule as the data show it: active = inhibition above about 41%; inconclusive = no clear call, values can overlap the other calls; inactive = below that.
# Experiment: blockers of LMP1-induced NF-kB reporter signal – cell-based, luminescence, single point, primary screen (AID 504558);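 also: 0% = neutral control wells and 100% = reference inhibitor control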
# Conditions: LMP1-induced NF-kappaB luciferase reporter cells, at 12.5 µM, active compounds read high
row,SMILES,inhibition
1,CCC(=O)N(c1ccccc1)C1(COC)CCN(CCc2cccs2)CC1,inactive: -21.8%
2,CCC(=O)N(c1ccccc1)C1(COC)CCN(CCn2nnn(CC)c2=O)CC1,inactive: 7.75%
